One assay addresses T1, PDE4C1 (Homo sapiens, UniProt Q08493).
T1 construct: purchased BPS 60384
In words: Inhibition assay of PDE4C1 enzyme (FP kit). It counts as biochemical. On the procedure: 5. Inhibition assay of PDE4C1 enzyme:
(§1) Materials and Instruments:
FAM substrate: 12.5 μL of a FAM substrate stock solution was added into 1250 μL of PDE assay buffer. 12.5 μL of the diluted substrate was added to each reaction well.
5 μL of the compound stock solution was added to 45 μL of DMSO to prepare a 1 mM diluent. 5 μL of the 1 mM diluent was added to 45 μL of PDE assay buffer to prepare a gradient dilution starting point. Then, according to the method of adding 5 μL of the previous concentration solution to 15 μL of PDE assay buffer, gradient dilution was carried out for 9 times to prepare compound working solutions with 10 concentrations. The working solutions were added to compound wells at 2.5 μL/well.
PDE4C1: First, a PDE4C1 stock solution was diluted by 100 times to a concentration of 3.2 ng/μL, 13.75 μL of the diluent was added to 1100 μL of PDE assay buffer, and the mixture was added to all compound wells and positive control wells at 10 μL/well. 10 μL of PDE assay buffer was added to substrate control wells.
Binding solution: 50 μL of binder was added into 5 mL of binder diluent, and then mixed well. The obtained mixture was added to all wells at 50 μL/well.
(§2) FPsub=Substrate control FP.

By UniProt entry, the sequences of proteins in these tests, tags left out. Where a name states a change or a piece, a line headed by the entry shows the natural chain unless it says otherwise. Residues count along the entry.
UniProt Q08493: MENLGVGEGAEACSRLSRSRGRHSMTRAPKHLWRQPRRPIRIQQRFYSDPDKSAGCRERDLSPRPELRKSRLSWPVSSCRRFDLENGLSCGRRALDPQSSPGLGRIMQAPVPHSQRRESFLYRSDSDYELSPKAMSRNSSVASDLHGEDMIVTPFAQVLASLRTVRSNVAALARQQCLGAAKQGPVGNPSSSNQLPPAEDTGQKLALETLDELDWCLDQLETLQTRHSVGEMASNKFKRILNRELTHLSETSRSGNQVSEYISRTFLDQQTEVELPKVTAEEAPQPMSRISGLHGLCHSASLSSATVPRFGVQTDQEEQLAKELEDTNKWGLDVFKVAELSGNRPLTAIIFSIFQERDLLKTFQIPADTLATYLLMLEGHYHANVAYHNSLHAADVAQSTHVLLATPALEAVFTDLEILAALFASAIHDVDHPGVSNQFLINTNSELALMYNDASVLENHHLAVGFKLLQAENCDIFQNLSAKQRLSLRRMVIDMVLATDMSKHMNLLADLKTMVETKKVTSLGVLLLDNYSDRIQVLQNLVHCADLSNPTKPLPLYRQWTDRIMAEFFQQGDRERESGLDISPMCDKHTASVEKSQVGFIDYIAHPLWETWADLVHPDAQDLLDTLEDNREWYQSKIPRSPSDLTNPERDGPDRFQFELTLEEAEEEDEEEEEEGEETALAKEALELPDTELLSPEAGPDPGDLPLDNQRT
UniProt P27815, 1-647 isoform P27815-4: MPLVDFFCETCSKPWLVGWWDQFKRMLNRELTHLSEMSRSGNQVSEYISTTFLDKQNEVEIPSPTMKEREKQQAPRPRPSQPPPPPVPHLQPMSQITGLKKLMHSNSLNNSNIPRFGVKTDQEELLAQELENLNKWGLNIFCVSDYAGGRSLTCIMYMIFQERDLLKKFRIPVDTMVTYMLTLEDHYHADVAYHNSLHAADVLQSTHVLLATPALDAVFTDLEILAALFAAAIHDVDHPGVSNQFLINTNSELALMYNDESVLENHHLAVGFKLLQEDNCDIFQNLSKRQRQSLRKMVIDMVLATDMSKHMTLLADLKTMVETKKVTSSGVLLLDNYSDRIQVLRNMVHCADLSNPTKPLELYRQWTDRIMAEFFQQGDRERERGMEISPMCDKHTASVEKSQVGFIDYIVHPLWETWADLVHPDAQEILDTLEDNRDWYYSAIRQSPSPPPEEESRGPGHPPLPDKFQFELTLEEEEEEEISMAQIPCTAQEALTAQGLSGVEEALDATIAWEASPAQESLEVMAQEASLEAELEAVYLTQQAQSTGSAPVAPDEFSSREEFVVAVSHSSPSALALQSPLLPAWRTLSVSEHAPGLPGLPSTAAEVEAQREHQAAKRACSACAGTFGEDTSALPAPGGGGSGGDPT

A further assay deals with T2, PDE4A1 (Homo sapiens, UniProt P27815).
T2 construct: purchased BPS 60340
The experiment in a line: Inhibition assay of PDE4A1 enzyme (FP kit). It counts as biochemical. On the procedure:
3. Inhibition assay of PDE4A1 enzyme:
as §1
FAM substrate: 25 μL of a FAM substrate stock solution was added into 2500 μL of PDE assay buffer. 25 μL of the diluted substrate was added to each reaction well.
5 μL of the compound stock solution was added to 45 μL of DMSO to prepare a 1 mM diluent. 5 μL of the 1 mM diluent was added to 45 μL of PDE assay buffer to prepare a gradient dilution starting point. Then, according to the method of adding 5 μL of the previous concentration solution to 15 μL of PDE assay buffer, gradient dilution was carried out for 9 times to prepare compound working solutions with 10 concentrations. The working solutions were added to compound wells at 5 μL/well.
PDE4A1: First, a PDE4A1 stock solution was diluted by 100 times to a concentration of 4.9 ng/μL, 1.8 μL of the diluent was added to 2200 μL of PDE assay buffer, and the mixture was added to all compound wells and positive control wells at 20 μL/well. 20 μL of PDE assay buffer was added to substrate control wells.
Binding solution: 95 μL of binding buffer was added into 9.5 mL of binder diluent, and then mixed well. The obtained mixture was added to all wells at 100 μL/well.
as §2

For the compound `CCOc1cc([C@@H](CS(C)(=O)=O)N2C(=O)c3cccc(NC(C)=O)c3C2=O)ccc1OC` [Example 0, Apremilast, reference compound], the IC50 on PDE4C1 lay in the range of 200 to 500 nM; on PDE4A1, 100 to 200 nM.

The values are drawn from patent US20240254082A1, “Substituted Isoindoline-1, 3-diketone PDE4 Inhibitor and Pharmaceutical Application Thereof” (SUZHOU INTRAGRAND PHARMA CO., LTD, priority 2021, published 2024).
